The numbers were not newly measured in paper PMC6838683, “Discovery of Human Signaling Systems: Pairing Peptides to G Protein-Coupled Receptors” (Cell, 2019), which cites them from elsewhere.

Where two headings read alike, the source gives them in different places.

In this data set the target is human GPCRs. The arrangement: method as in Guide to Pharmacology database. Conditions: max reported value, ref Guide to Pharmacology database, cited from earlier work. From the text:
Supplement mmc1.xlsx, sheet "HumanGPCRLigands" | column: pKi_value; pKd_value; pEC50_value; pIC50_value

Consider `CC(=O)OCC[N+](C)(C)C` [acetylcholine], for which the pKi_value reads like this: (receptor acm2_human (CHRM2, P08172)) 6.5; (receptor acm3_human (CHRM3, P20309)) 5.4; (receptor acm4_human (CHRM4, P08173)) 5.6; (receptor acm5_human (CHRM5, P08912)) 6.1.
